{"sequences": {"note": "Amino acid sequences for entries named in this document (tags omitted).", "UniProt P61169, whole entry": "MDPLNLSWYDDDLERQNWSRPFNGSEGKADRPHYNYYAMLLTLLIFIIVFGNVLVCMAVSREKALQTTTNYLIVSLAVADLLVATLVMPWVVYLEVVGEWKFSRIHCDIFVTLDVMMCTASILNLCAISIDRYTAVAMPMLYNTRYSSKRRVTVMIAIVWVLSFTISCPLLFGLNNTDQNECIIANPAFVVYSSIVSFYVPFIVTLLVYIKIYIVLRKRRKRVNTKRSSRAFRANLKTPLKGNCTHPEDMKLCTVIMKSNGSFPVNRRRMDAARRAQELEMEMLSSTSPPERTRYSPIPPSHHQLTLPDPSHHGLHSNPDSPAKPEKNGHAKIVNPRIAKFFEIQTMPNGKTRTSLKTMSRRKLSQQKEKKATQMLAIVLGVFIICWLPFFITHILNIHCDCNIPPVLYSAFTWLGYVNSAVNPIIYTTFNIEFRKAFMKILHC"}, "source": "patent US20080181848A1", "about": "(priority 2004, published 2008)", "key": {"D2^High": {"molecular_target": "D2^High (Rattus norvegicus, UniProt P61169)", "test": "In vitro binding of [3H](+)PHNO in rats sensitized to amphetamine", "conditions": "rats sensitized to become supersensitive to amphetamine; tested as the radiolabelled form"}, "D2 receptors in striatum": {"molecular_target": "D2 receptors in striatum (Rattus norvegicus, UniProt P61169)", "test": "Binding of intravenously injected radioligand in rat striatum, alone and co-injected with NPA (Examples 2 and 3)"}, "[1]": {"conditions": "radioligand co-injected i.v. with NPA 25 μg/kg, tested as the radiolabelled form"}}, "data": [{"smiles": "CCCN1CCO[C@@H]2c3cc(O)ccc3CC[C@H]21", "values": [{"measurement": "in vitro binding of [3H](+)PHNO, which labels D2^High", "setting": "D2^High", "value": "increased"}, {"measurement": "Control DPM/mg (total binding in striatum)", "setting": "D2 receptors in striatum; 30 min after i.v. 0.1 nmol radioligand, no NPA, n=6, tested as the radiolabelled form", "value": 33.9, "unit": "DPM/mg"}, {"measurement": "Control", "setting": "D2 receptors in striatum; 30 min after i.v. 0.1 nmol radioligand, no NPA, tested as the radiolabelled form", "value": 3.12, "unit": "pmol/g"}, {"measurement": "pmol/g Displaced by NPA", "setting": "D2 receptors in striatum; NPA 25 μg/kg co-injected, tested as the radiolabelled form", "value": 1.65, "unit": "pmol/g"}, {"measurement": "With NPA", "setting": "D2 receptors in striatum; [1]", "value": 1.47, "unit": "pmol/g"}, {"measurement": "With NPA DPM/mg", "setting": "D2 receptors in striatum; [1]", "value": 16.02, "unit": "DPM/mg"}]}]}
